Source: patent publication US9598396B2, “Tetrahydrophenanthridinones and tetrahydrocyclopentaquinolinones as PARP and tubulin polymerization inhibitors” (Janssen Pharmaceutica NV, priority 2008, dated 2017)

Amino acid sequences for entries named in this document (tags omitted).
UniProt P09874, whole entry: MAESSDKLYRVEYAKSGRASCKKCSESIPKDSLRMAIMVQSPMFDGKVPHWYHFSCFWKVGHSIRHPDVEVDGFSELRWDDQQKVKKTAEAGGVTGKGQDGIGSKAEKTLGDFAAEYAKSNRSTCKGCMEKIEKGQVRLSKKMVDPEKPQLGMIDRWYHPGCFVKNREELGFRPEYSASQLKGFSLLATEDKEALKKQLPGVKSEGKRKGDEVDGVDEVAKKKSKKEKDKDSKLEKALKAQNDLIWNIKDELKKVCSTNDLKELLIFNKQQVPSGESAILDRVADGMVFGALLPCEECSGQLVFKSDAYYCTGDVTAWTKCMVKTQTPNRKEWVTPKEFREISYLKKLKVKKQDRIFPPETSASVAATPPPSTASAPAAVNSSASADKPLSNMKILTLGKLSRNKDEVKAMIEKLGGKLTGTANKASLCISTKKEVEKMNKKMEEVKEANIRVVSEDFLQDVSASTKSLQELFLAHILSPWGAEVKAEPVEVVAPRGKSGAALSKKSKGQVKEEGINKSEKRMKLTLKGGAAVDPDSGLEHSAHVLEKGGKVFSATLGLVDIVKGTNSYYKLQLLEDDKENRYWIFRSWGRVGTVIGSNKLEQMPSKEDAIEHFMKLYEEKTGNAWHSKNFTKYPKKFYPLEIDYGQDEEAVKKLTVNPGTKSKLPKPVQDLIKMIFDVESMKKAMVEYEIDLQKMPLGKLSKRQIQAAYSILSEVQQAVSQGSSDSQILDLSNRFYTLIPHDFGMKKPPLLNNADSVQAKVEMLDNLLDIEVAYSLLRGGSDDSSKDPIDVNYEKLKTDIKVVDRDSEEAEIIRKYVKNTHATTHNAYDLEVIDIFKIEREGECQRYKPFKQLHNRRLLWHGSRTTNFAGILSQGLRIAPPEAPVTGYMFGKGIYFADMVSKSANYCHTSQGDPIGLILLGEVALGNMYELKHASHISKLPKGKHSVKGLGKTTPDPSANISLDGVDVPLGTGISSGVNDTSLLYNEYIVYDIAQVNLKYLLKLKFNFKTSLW

Target: Human PARP-1 enzyme (Homo sapiens (Human), UniProt P09874)
Assay: In vitro Scintillation Proximity Assay (SPA) for PARP-1 inhibitory activity
Type: biochemical
Settings: nicked DNA activated PARP-1, [3H]-NAD+, biotinylated histones
Method: C.1.In Vitro Scintillation Proximity Assay (SPA) for PARP-1 Inhibitory Activity
Compounds of the present invention were tested in an in vitro assay based on SPA technology (proprietary to GE healthcare).
In principle, the assay relies upon the well established SPA technology for the detection of poly(ADP-ribosyl)ation of biotinylated target proteins, i.e histones. This ribosylation is induced using nicked DNA activated PARP-1 enzyme and [^3H]-nicotinamide adenine dinucleotide ([^3H]-NAD^+) as ADP-ribosyl donor.
Histones (type II-A, supplier: Sigma) were biotinylated using the biotinylation kit of Amersham and stored aliquoted at −20° C. A stock solution of 100 mg/ml SPA poly(vinyl toluene) (PVT) beads (supplier: Amersham) was made in PBS. A stock solution of 61.6 nM […] was made by adding [^3H]-NAD^+ (0.1 mCi/ml, supplier: Perkin Elmer) to incubation buffer (50 mM Tris/HCl, pH 8; 0.2 mM DTT; 4 mM MgCl2). A solution of 4 mM NAD^+ (supplier: Sigma) was made. […] The beads were sedimented by centrifugation (10 min, 800 rpm) and plates transferred to a TopCountNXT™ (Packard) for scintillation counting, values were expressed as counts per minute (cpm). […] For each sample, the amount of cpm was expressed as a percentage of the mean cpm value of the controls. […] Herein the effects of test compounds are expressed as pIC50 (the negative log value of the IC50-value). […]

With `COc1cc(OC)nc(CC(C)(C#N)c2ccc3c4c(c(=O)[nH]c3c2)CCCC4)n1` (stereo not shown) [Co. No. 6] the “in vitro SPA assay PARP-1 pIC50” value was 7.27.
